Test results reported in paper PMC5934274.

Substrate: NC(=O)c1ccc[n+]([C@@H]2O[C@H](COP(=O)([O-])OP(=O)(O)OC[C@H]3O[C@@H](n4cnc5c(N)ncnc54)[C@H](O)[C@@H]3O)[C@@H](O)[C@H]2O)c1
Test: purified protein, by the assay type

B1: PARP10 (Homo sapiens) (protein)
chain: MVAMAEAEAGVAVEVRGLPPAVPDELLTLYFENRRRSGGGPVLSWQRLGCGGVLTFREPADAERVLAQADHELHGAQLSLRPAPPRAPARLLLQGLPPGTTPQRLEQHVQALLRASGLPVQPCCALASPRPDRALVQLPKPLSEADVRVLEEQAQNLGLEGTLVSLARVPQARAVRVVGDGASVDLLLLELYLENERRSGGGPLEDLQRLPGPLGTVASFQQWQVAERVLQQEHRLQGSELSLVPHYDILEPEELAENTSGGDHPSTQGPRATKHALLRTGGLVTALQGAGTVTMGSGEEPGQSGASLRTGPMVQGRGIMTTGSGQEPGQSGTSLRTGPMGSLGQAEQVSSMPMGSLEHEGLVSLRPVGLQEQEGPMSLGPVGSAGPVETSKGLLGQEGLVEIAMDSPEQEGLVGPMEITMGSLEKAGPVSPGCVKLAGQEGLVEMVLLMEPGAMRFLQLYHEDLLAGLGDVALLPLEGPDMTGFRLCGAQASCQAAEEFLRSLLGSISCHVLCLEHPGSARFLLGPEGQHLLQGLEAQFQCVFGTERLATATLDTGLEEVDPTEALPVLPGNAHTLWTPDSTGGDQEDVSLEEVRELLATLEGLDLDGEDWLPRELEEEGPQEQPEEEVTPGHEEEEPVAPSTVAPRWLEEEAALQLALHRSLEPQGQVAEQEEAAALRQALTLSLLEQPPLEAEEPPDGGTDGKAQLVVHSAFEQDVEELDRALRAALEVHVQEETVGPWRRTLPAELRARLERCHGVSVALRGDCTILRGFGAHPARAARHLVALLAGPWDQSLAFPLAASGPTLAGQTLKGPWNNLERLAENTGEFQEVVRAFYDTLDAARSSIRVVRVERVSHPLLQQQYELYRERLLQRCERRPVEQVLYHGTTAPAVPDICAHGFNRSFCGRNATVYGKGVYFARRASLSVQDRYSPPNADGHKAVFVARVLTGDYGQGRRGLRAPPLRGPGHVLLRYDSAVDCICQPSIFVIFHDTQALPTHLITCEHVPRASPDDPSGLPGRSPDT
Km (other: PARP10 FL): 98 ± 11 µM

B2: PARP10 (Homo sapiens) (protein)
chain: NLERLAENTGEFQEVVRAFYDTLDAARSSIRVVRVERVSHPLLQQQYELYRERLLQRCERRPVEQVLYHGTTAPAVPDICAHGFNRSFCGRNATVYGKGVYFARRASLSVQDRYSPPNADGHKAVFVARVLTGDYGQGRRGLRAPPLRGPGHVLLRYDSAVDCICQPSIFVIFHDTQALPTHLITCEHV
Km (other: PARP10 ART): 90 ± 27 µM

B3: PARP12 (Homo sapiens) (protein)
chain: MAQAGVVGEVTQVLCAAGGALELPELRRRLRMGLSADALERLLRQRGRFVVAVRAGGAAAAPERVVLAASPLRLCRAHQGSKPGCVGLCAQLHLCRFMVYGACKFLRAGKNCRNSHSLTTEHNLSVLRTHGVDHLSYNELCQLLFQNDPWLLPEICQHYNKGDGPHGSCAFQKQCIKLHICQYFLQGECKFGTSCKRSHDFSNSENLEKLEKLGMSSDLVSRLPTIYRNAHDIKNKSSAPSRVPPLFVPQGTSERKDSSGSVSPNTLSQEEGDQICLYHIRKSCSFQDKCHRVHFHLPYRWQFLDRGKWEDLDNMELIEEAYCNPKIERILCSESASTFHSHCLNFNAMTYGATQARRLSTASSVTKPPHFILTTDWIWYWSDEFGSWQEYGRQGTVHPVTTVSSSDVEKAYLAYCTPGSDGQAATLKFQAGKHNYELDFKAFVQKNLVYGTTKKVCRRPKYVSPQDVTTMQTCNTKFPGPKSIPDYWDSSALPDPGFQKITLSSSSEEYQKVWNLFNRTLPFYFVQKIERVQNLALWEVYQWQKGQMQKQNGGKAVDERQLFHGTSAIFVDAICQQNFDWRVCGVHGTSYGKGSYFARDAAYSHHYSKSDTQTHTMFLARVLVGEFVRGNASFVRPPAKEGWSNAFYDSCVNSVSDPSIFVIFEKHQVYPEYVIQYTTSSKPSVTPSILLALGSLFSSRQ
Km (other: PARP12 ART): 299 ± 76 µM

B4: PARP15 (Homo sapiens) (protein)
chain: MAAPGPLPAAALSPGAPTPRELMHGVAGVTSRAGRDREAGSVLPAGNRGARKASRRSSSRSMSRDNKFSKKDCLSIRNVVASIQTKEGLNLKLISGDVLYIWADVIVNSVPMNLQLGGGPLSRAFLQKAGPMLQKELDDRRRETEEKVGNIFMTSGCNLDCKAVLHAVAPYWNNGAETSWQIMANIIKKCLTTVEVLSFSSITFPMIGTGSLQFPKAVFAKLILSEVFEYSSSTRPITSPLQEVHFLVYTNDDEGCQAFLDEFTNWSRINPNKARIPMAGDTQGVVGTVSKPCFTAYEMKIGAITFQVATGDIATEQVDVIVNSTARTFNRKSGVSRAILEGAGQAVESECAVLAAQPHRDFIITPGGCLKCKIIIHVPGGKDVRKTVTSVLEECEQRKYTSVSLPAIGTGNAGKNPITVADNIIDAIVDFSSQHSTPSLKTVKVVIFQPELLNIFYDSMKKRDLSASLNFQSTFSMTTCNLPEHWTDMNHQLFCMVQLEPGQSEYNTIKDKFTRTCSSYAIEKIERIQNAFLWQSYQVKKRQMDIKNDHKNNERLLFHGTDADSVPYVNQHGFNRSCAGKNAVSYGKGTYFAVDASYSAKDTYSKPDSNGRKHMYVVRVLTGVFTKGRAGLVTPPPKNPHNPTDLFDSVTNNTRSPKLFVVFFDNQAYPEYLITFTA
Km (other: PARP15 ART): 11.0 ± 4.2 µM

B5: PARP16 (Homo sapiens) (protein)
chain: MQPSGWAAAREAAGRDMLAADLRCSLFASALQSYKRDSVLRPFPASYARGDCKDFEALLADASKLPNLKELLQSSGDNHKRAWDLVSWILSSKVLTIHSAGKAEFEKIQKLTGAPHTPVPAPDFLFEIEYFDPANAKFYETKGERDLIYAFHGSRLENFHSIIHNGLHCHLNKTSLFGEGTYLTSDLSLALIYSPHGHGWQHSLLGPILSCVAVCEVIDHPDVKCQTKKKDSKEIDRRRARIKHSEGGDIPPKYFVVTNNQLLRVKYLLVYSQKPPKRASSQLSWFSSHWFTVMISLYLLLLLIVSVINSSAFQHFWNRAKR
Km (other: PARP16 FL): 582 ± 196 µM

B6: PARP2 (Homo sapiens) (protein)
chain: MAARRRRSTGGGRARALNESKRVNNGNTAPEDSSPAKKTRRCQRQESKKMPVAGGKANKDRTEDKQDGMPGRSWASKRVSESVKALLLKGKAPVDPECTAKVGKAHVYCEGNDVYDVMLNQTNLQFNNNKYYLIQLLEDDAQRNFSVWMRWGRVGKMGQHSLVACSGNLNKAKEIFQKKFLDKTKNNWEDREKFEKVPGKYDMLQMDYATNTQDEEETKKEESLKSPLKPESQLDLRVQELIKLICNVQAMEEMMMEMKYNTKKAPLGKLTVAQIKAGYQSLKKIEDCIRAGQHGRALMEACNEFYTRIPHDFGLRTPPLIRTQKELSEKIQLLEALGDIEIAIKLVKTELQSPEHPLDQHYRNLHCALRPLDHESYEFKVISQYLQSTHAPTHSDYTMTLLDLFEVEKDGEKEAFREDLHNRMLLWHGSRMSNWVGILSHGLRIAPPEAPITGYMFGKGIYFADMSSKSANYCFASRLKNTGLLLLSEVALGQCNELLEANPKAEGLLQGKHSTKGLGKMAPSSAHFVTLNGSTVPLGPASDTGILNPDGYTLNYNEYIVYNPNQVRMRYLLKVQFNFLQLW
Km (other: PARP2 FL): 1.9 ± 0.5 µM

B7: PARP2 (Homo sapiens) (protein)
chain: DLRVQELIKLICNVQAMEEMMMEMKYNTKKAPLGKLTVAQIKAGYQSLKKIEDCIRAGQHGRALMEACNEFYTRIPHDFGLRTPPLIRTQKELSEKIQLLEALGDIEIAIKLVKTELQSPEHPLDQHYRNLHCALRPLDHESYEFKVISQYLQSTHAPTHSDYTMTLLDLFEVEKDGEKEAFREDLHNRMLLWHGSRMSNWVGILSHGLRIAPPEAPITGYMFGKGIYFADMSSKSANYCFASRLKNTGLLLLSEVALGQCNELLEANPKAEGLLQGKHSTKGLGKMAPSSAHFVTLNGSTVPLGPASDTGILNPDGYTLNYNEYIVYNPNQVRMRYLLKVQFNF
Km (other: PARP2 ART): 159 ± 5 µM

B8: PARP3 (Homo sapiens) (protein)
chain: MAPKPKPWVQTEGPEKKKGRQAGREEDPFRSTAEALKAIPAEKRIIRVDPTCPLSSNPGTQVYEDYNCTLNQTNIENNNNKFYIIQLLQDSNRFFTCWNRWGRVGEVGQSKINHFTRLEDAKKDFEKKFREKTKNNWAERDHFVSHPGKYTLIEVQAEDEAQEAVVKVDRGPVRTVTKRVQPCSLDPATQKLITNIFSKEMFKNTMALMDLDVKKMPLGKLSKQQIARGFEALEALEEALKGPTDGGQSLEELSSHFYTVIPHNFGHSQPPPINSPELLQAKKDMLLVLADIELAQALQAVSEQEKTVEEVPHPLDRDYQLLKCQLQLLDSGAPEYKVIQTYLEQTGSNHRCPTLQHIWKVNQEGEEDRFQAHSKLGNRKLLWHGTNMAVVAAILTSGLRIMPHSGGRVGKGIYFASENSKSAGYVIGMKCGAHHVGYMFLGEVALGREHHINTDNPSLKSPPPGFDSVIARGHTEPDPTQDTELELDGQQVVVPQGQPVPCPEFSSSTFSQSEYLIYQESQCRLRYLLEVHL
Km (other: PARP3 ART): 2170 ± 645 µM | Km (other: PARP3 FL): 131 ± 57 µM
